From ChEMBL document CHEMBL1158490, “Discovery of leukotriene A4 hydrolase inhibitors using metabolomics biased fragment crystallography” (J Med Chem, 2009) come the findings set out here.

Experiment [1] concerns the target T1, Leukotriene A-4 hydrolase (Homo sapiens, UniProt P09960).
T1 sequence (P09960 whole entry): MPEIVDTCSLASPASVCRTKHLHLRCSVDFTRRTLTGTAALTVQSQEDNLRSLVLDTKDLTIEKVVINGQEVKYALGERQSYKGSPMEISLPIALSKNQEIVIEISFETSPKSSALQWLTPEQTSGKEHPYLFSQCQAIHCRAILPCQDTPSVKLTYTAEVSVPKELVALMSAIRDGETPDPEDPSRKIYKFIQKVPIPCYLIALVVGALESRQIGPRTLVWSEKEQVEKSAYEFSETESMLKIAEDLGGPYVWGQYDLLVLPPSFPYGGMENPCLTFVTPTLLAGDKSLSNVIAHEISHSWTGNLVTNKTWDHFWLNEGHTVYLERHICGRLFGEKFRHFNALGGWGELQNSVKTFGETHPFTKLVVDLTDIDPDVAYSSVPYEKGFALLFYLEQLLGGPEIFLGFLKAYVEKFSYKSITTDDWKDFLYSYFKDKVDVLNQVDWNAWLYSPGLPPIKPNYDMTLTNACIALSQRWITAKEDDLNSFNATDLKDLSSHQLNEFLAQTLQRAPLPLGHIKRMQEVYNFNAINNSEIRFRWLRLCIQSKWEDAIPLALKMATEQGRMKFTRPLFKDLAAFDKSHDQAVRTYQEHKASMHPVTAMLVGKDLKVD
Put plainly: Inhibition of hydrolase activity of human recombinant LTA4H expressed in Escherichia coli BL21-AI/pRARE assessed as LTB4 formation by tandem quadrupole mass spectrometry.

For experiment [2], the target named is T1, Leukotriene A-4 hydrolase. Put plainly: Inhibition of peptidase activity of human recombinant LTA4H expressed in Escherichia coli BL21-AI/pRARE.

On to `c1ccc(CNc2ccc(OC[C@H]3CCCN3)cc2)cc1`, for which, in experiment [1], the IC50 (commonly the concentration needed to halve the response being measured) came out at 0.157 µM.

As for `OC(c1ccncc1)c1ccc(OCCN2CCCC2)cc1` (stereo not drawn), the IC50 in experiment [1] was 170 µM.

Take `NCc1ccc(-c2cccs2)s1`: the IC50 in experiment [1] stood at 75.2 µM; in experiment [2] it was 38.9 µM.

In the case of `O=C(O)C1CCN(CCOc2ccc3[nH]ccc3c2)CC1`, the IC50 in experiment [1] came to 966 µM.

As to `O=C(c1ccncc1)c1ccc(F)cc1`, the IC50 in experiment [1] was determined as 5310 µM.

On to `Nc1nc(-c2ccc(O)cc2)cs1`, for which the 50% inhibitory concentration (IC50) in experiment [1] was 1440 µM; in experiment [2], more than 1000 µM.
